Protein sequences, listed by entry. Tags and fused reporters are not part of them.
UniProt Q07812, whole entry: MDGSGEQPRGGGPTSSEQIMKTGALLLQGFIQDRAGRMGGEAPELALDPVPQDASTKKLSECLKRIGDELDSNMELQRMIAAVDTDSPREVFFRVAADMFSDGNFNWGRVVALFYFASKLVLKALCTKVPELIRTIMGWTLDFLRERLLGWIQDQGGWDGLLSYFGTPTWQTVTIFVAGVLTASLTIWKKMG

According to ChEMBL document CHEMBL4665844, “HDAC-Bax Multiple Ligands Enhance Bax-Dependent Apoptosis in HeLa Cells” (J Med Chem, 2020):

Target: Apoptosis regulator BAX (Homo sapiens, UniProt Q07812)
Test: Activation of BAX (unknown origin)

## O=C1/C(=N\Nc2nccs2)C(c2ccccc2)=NN1c1nc(-c2ccccc2)cs1
  IC50: 250 nM
